Consider 1 substance from patent US5958877A, “Method for counteracting vasospasms, ischemia, renal failure, and treating male impotence using calcitonin gene related peptide” (priority 1995, dated 1999).

The subject of assay [1] is coronary arteries. In words: Coronary spasms induced by neuropeptide Y and ergonovine in beagles, intracoronary CGRP. It counts as in vivo, dog (beagles). Here is the method:
(§1) Four beagles were used in this procedure. The dogs were anesthetized using telazol, xylazine, and butrophanol, and coronary catheterization was performed. After basal angiography, coronary spasms were induced by intracoronary administration of a combination of neuropeptide Y (2.5 nmol) and ergonovine (50 μg). Normal saline (for control animals) and normal saline containing 0.25 nmol of CGRP prepared as in Example 1 were administered into coronary arteries through the catheter. The saline or saline/CGRP solution was injected into the coronary artery as a bolus dose. The change in diameter of the coronary artery was measured by digital angiography and miniature doplar probes.

The subject of assay [2] is coronary arteries. In words: Coronary spasms induced by neuropeptide Y and ergovine in mini pigs, intracoronary CGRP. Format: in vivo. Here is the method: as §1, with “mini pigs” for “beagles were used in this procedure. The dogs”, “Ketamine and” for “telazol,”, “maintained on isoflurane during” for “butrophanol, and”, “catheterization.” for “catheterization was performed.”, “ergovine” for “ergonovine”, “0.50” for “0.25”

A short description of assay [3]: Acute renal failure induced by clamping the renal arteries, intravenous CGRP. The following applies: rats, renal arteries clamped 50 minutes; intravenous 0.8 nmol/kg/hr CGRP in saline. It counts as in vivo. As to the method:
CGRP also has been infused intravenously into rats that have been prepped to experimentally simulate acute renal failure using known procedures. […] Similar results have been observed with reperfusion injury affecting the heart and brain.
One in each pair of rats was used as a test animal and one as a control. The induced rats were intravenously injected with normal saline (5 ml/hr) either (1) alone, as a control, or (2) containing the following: 0.8 nmol/kg/hr of CGRP prepared as in Example 1; 0.6 mmol/kg/hr of a free radical scavenger--either N-acetyl cysteine, obtained from Faulding Hospital Products, Inc., N.J., or amifostine (ethiofos, WR2721), 0.2 mmol/kg/hr, obtained from U.S. Bioscience, Inc., PA.
The combined therapy of CGRP and a free radical scavenger further increased the glomerular filtration rate and the urine output to 4-5 fold. Maintenance of satisfactory urine output and glomerular filtration are extremely important to recovery from acute renal failure.

Assay [4] relates to coronary arteries. In words: Intracoronary bolus injection of CGRP in patients with angina pectoris secondary to coronary artery narrowing, angiography. It counts as in vivo, humans. Here is the method:
Six humans with angina pectoris secondary to narrowing of the coronary arteries were selected for this procedure. In preparation for angioplasty,0.5 nmol of CGRP synthesized as described in Example 1 was dissolved in sterile normal saline to form a 0.004% solution of CGRP. The solution was loaded into a angiographic catheter by a microbore syringe. […] After the CGRP was injected as a bolus dose, the change in diameter of the coronary artery was measured by angiography immediately and 5-10 minutes after the injection. […] The improvement of the coronary artery diameter ranged between 30-80%, as measured by angiography. FIG. 1 is a representative angiograph showing the improvement in one patient who underwent the procedure.

As to “calcitonin gene-related peptide (ACDTATCVTHRLAGLLSRSGGVVKNNFVPTNVGSKAF; Calcitonin gene-related peptide 1; UniProt P06881 83-119, looked up) [CGRP, 1, synthesized by Merrifield t-Boc solid-phase chemistry]”, the “increase in the diameter of the coronary arteries” value with coronary arteries [1] (0.25 nmol intracoronary bolus, digital angiography and miniature doplar probes) was 50%; with coronary arteries [2] (0.50 nmol intracoronary bolus, digital angiography and miniature doplar probes), 40%-50%. Also, the “coronary spasms and coronary artery blood flow” value with coronary arteries [1] (dog model, spasms induced by chemicals (neuropeptide Y or ergonovine) or by the guidewire) was “completely abolished coronary spasms and re-established the coronary artery blood flow”; in the assay on coronary arteries [2] (pig model, spasms induced by chemicals (neuropeptide Y or ergonovine) or by the guidewire) it was “completely abolished coronary spasms and re-established the coronary artery blood flow”. The “increase in glomerular filtration rate” value in assay [3] is on record as 3 fold. Besides, the “increase in urine output” value in assay [3] turned out to be 3 fold. For the same substance, the “improvement of the coronary artery diameter, as measured by angiography” value in the assay with coronary arteries [4] (0.5 nmol intracoronary bolus, measured immediately and 5-10 minutes after injection, six patients with 40-90% blockage) is recorded as 30-80%. In addition, the “blood flow in the coronary arteries (miniature doplers)” value with coronary arteries [4] (after infusion of CGRP, preliminary studies) was “significant increase of blood flow”. The “cardiac pain and electrocardiographic changes associated with ischemia” value with coronary arteries [4] (bolus dose or infusion into the coronary arteries of humans) was “relieved cardiac pain and reversed electrocardiographic changes”. For the same substance, the angina pain result in the assay with coronary arteries [4] (patients suffering from angina pain at the time of the procedure (4 out of 6), after intracoronary injection) is “the pain immediately subsided”.
